Here are results for 3 compounds from patent publication US9221819B2.

Amino acid sequences for entries named in this document (tags omitted).
UniProt P32246, whole entry: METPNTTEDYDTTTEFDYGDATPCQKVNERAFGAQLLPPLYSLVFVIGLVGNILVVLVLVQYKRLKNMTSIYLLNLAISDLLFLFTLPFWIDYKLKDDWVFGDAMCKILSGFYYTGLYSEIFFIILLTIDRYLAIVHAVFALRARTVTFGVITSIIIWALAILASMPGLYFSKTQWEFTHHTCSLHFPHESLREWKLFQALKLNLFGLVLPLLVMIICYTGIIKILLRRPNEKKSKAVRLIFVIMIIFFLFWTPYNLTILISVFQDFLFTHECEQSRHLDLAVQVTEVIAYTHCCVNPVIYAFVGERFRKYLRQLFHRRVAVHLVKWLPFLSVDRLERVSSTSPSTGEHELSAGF

A word on the pKi: it is the Ki on a negative log10 scale, so that one unit is a factor of ten.

pKi: −log10 of the molar value.

For the test, the target named is CCR1 (Homo sapiens, UniProt P32246). Briefly: CCR1 Ligand Binding Scintillation Proximity Assay (SPA), [125I]-MIP-1α competition on THP-1 cells. The settings on record: read-out: CCR1 Binding Ki; THP-1 monocytic leukemia cells; 0.1 nM [125I]-MIP-1α; Ki from IC50 by Cheng-Prusoff equation. Here is the method:
CCR1 Ligand Binding Scintillation Proximity Assay (SPA)
For radioligand competition studies, a final concentration of 1×10^5 THP-1 monocytic leukemia cells are combined with 100 μg of LS WGA PS beads (Amersham, Cat.#: RPNQ 0260) in 40 μl of assay buffer (RPMI 1640 without phenol red, 50 mM HEPES, 5 mM MgCl2, 1 mM CaCl2, 0.1% BSA). The THP-1 cell/bead mixture is added to each well of a 384-well assay plate (PerkinElmer, Cat. #:6007899) containing test compound in 3-fold serial dilution, with final concentrations ranging from 8 μM to 140 pM. A final concentration of 0.1 nM [^125I]-MIP-1α (PerkinElmer, Cat. #NEX298) in 20 μl assay buffer is added to the reaction. Sealed assay plates are incubated at room temperature for 12 h then analyzed by LEADseeker™.
The competition data of compound (I) over a range of concentrations is plotted as percentage inhibition of radioligand specific bound in the absence of test compound (percent of total signal). After correcting for non-specific binding, IC50 values are determined. The IC50 value is defined as the concentration of test compound needed to reduce [^125I]-MIP-1α specific binding by 50% and is calculated using the four parameter logistic equation to fit the normalized data. The Ki values are determined by application of the Cheng-Prusoff equation to the IC50 values, where Ki=IC50/(1+ligand concentration/Kd) The Kd of [^125I]-MIP-1α in THP-1 cells is 0.1 nM. Each experiment is run in duplicate.
On to `CC(C)[C@@H](NC(=O)C1CCCC12CCNC(=O)O2)C(=O)N1CC[C@](O)(c2ccc(Cl)cc2)C(C)(C)C1` (single isomer, unassigned), for which the pKi is 8.62.

As for `CC(C)[C@@H](NC(=O)[C@@H]1CCC2(CCCN2)C1)C(=O)N1CC[C@](O)(c2ccc(Cl)cc2)C(C)(C)C1` (single isomer, unassigned), the pKi was 6.71. `CC(C)[C@@H](NC(=O)[C@@H]1CCC2(CCNC(=O)O2)C1)C(=O)N1CC[C@](O)(c2ccc(Cl)cc2)C(C)(C)C1` (single isomer, unassigned): the pKi is 8.18.
